The values that follow come from patent US9718817B2, “Aryl and heteroaryl ether compounds as ROR gamma modulators” (Glenmark Pharmaceuticals S.A., priority 2014, dated 2017).

Sequences of proteins named here, by UniProt entry; tags and fusion partners are left off. Residues count along the entry.
UniProt P51449, 269-508 limits assumed: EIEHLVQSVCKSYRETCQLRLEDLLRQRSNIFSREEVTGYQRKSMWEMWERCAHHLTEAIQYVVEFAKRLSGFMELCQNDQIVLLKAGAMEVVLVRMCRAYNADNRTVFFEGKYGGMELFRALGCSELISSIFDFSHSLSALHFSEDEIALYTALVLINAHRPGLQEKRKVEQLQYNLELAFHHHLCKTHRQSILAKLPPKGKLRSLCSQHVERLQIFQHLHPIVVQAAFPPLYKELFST

Broadly, the % Inhibition is the relative decrease from the control value, in per cent. A word on the IC50: it is the concentration needed to halve the response being measured.

This experiment addresses GST-tagged ROR gamma ligand binding domain (LBD) (Homo sapiens, UniProt P51449). The experiment is described as follows: TR-FRET assay for ROR gamma (LanthaScreen co-activator peptide recruitment). On the technique in general: TR-FRET usually uses a lanthanide donor and a delayed reading to cut background.

For the compound `CCS(=O)(=O)c1ccc(CC(=O)Nc2ccc3c(c2)nc(C(C)(C)Oc2ccc(F)cc2F)n3C)cc1`, the “% Inhibition at 1 μM” value (compound 1 μM, TR-FRET ratio 520/495, percent of control) came out at 82.41%. Moreover, for the setting “compound 10 μM, TR-FRET ratio 520/495, percent of control”, the “% Inhibition at 10 μM” value worked out at 87.38%. Under “read-out: IC50 value, class symbols, from dose response curve”, the IC50 lay in the range of 50 to 100 nM.
